Consider 1 compound from ChEMBL document CHEMBL3751661, “The influence of 5-HT(2A) activity on a 5-HT(2C) specific in vivo assay used for early identification of multiple acting SERT and 5-HT(2C) receptor ligands” (Bioorg Med Chem Lett, 2016).

Amino acid sequences for entries named in this document (tags omitted). A change or cut given only in a name is not applied to a line headed by its entry.
UniProt P28223, whole entry: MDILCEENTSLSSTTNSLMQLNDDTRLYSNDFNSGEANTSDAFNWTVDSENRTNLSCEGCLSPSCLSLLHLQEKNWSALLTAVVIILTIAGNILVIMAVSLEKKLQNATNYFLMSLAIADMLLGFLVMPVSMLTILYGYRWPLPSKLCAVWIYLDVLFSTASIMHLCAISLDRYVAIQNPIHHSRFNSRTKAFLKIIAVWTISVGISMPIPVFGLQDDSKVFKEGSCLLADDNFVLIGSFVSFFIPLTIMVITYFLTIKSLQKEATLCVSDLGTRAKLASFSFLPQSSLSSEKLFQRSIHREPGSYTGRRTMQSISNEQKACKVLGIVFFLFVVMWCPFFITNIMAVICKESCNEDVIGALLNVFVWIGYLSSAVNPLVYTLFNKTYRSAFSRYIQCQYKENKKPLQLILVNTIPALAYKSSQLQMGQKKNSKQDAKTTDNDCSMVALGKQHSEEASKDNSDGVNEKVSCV
UniProt P28335: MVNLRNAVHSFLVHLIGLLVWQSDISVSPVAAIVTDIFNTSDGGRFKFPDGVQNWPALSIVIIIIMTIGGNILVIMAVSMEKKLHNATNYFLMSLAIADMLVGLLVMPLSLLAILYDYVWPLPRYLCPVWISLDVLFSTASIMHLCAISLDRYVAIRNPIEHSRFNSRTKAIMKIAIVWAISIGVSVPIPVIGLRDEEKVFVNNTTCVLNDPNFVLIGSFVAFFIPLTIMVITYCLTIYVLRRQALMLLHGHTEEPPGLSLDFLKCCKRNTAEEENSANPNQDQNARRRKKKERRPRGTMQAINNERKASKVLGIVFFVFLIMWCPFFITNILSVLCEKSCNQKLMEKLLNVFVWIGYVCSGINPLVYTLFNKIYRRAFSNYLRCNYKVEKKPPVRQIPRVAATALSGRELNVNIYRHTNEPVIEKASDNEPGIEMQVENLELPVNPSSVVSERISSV

pKi: −log10 of the molar value.

Assay [1] deals with 5-hydroxytryptamine receptor 2A (Homo sapiens, UniProt P28223). In words: Binding affinity to 5HT2A (unknown origin).
In assay [2] the target is 5-hydroxytryptamine receptor 2C (Homo sapiens, UniProt P28335). In words: Binding affinity to 5HT2C (unknown origin).

Regarding `Clc1cccc(N2CCNCC2)c1` [CHLOROPHENYLPIPERAZINE], the pKi (in general, the negative decadic logarithm of the Ki, by convention in mol/L) in assay [1] was 6.56; in assay [2], 7.56.
